Laboratory results as given in US20220089593A1, “PDE9 INHIBITOR AND USE THEREOF” (TRANSTHERA SCIENCES (NANJING), INC., priority 2019, published 2022).

Sequences of proteins named here, by UniProt entry; tags and fusion partners are left off. Residues count along the entry.
UniProt O76083, 1-533 isoform O76083-2: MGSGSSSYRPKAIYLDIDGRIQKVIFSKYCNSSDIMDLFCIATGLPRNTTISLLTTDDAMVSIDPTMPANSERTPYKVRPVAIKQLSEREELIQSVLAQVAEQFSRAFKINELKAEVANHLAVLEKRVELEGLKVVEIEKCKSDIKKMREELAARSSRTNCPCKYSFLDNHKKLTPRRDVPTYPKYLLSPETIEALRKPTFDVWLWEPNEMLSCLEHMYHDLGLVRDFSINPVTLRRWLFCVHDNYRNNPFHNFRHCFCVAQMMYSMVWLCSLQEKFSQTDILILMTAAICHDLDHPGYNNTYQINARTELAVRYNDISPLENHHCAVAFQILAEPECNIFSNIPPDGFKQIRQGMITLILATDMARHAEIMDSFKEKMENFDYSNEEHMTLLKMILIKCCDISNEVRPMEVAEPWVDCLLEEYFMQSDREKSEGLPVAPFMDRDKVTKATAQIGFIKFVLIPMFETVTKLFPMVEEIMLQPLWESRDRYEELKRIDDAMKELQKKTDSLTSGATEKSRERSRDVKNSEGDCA

Target: T1, PDE9A2 enzyme (Homo sapiens, UniProt O76083)
T1 construct: purchased BPS 60090
Experiment: PDE9 enzymatic evaluation
Assay type: biochemical
Conditions: PDE9A2 enzyme (BPS), fluorescence reading 480 nm/535 nm, room temperature

## COC1(C)CCN(c2c(C#N)c(=O)[nH]c3cnc(C4CC4)cc23)CC1 [Compound 164, 6-cyclopropyl-4-(4-methoxy-4-methylpiperidin-1-yl)-2-oxo-1,2-dihydro-1,7-naphthyridine-3-carbonitrile]
  IC50: 25 nM
